# Antibody variant affinities, Ab-14 heavy chain, assay B

From the AlphaSeq antibody data of Li et al. 2023 (doi:10.1038/s41467-023-39022-2), copy in the FLAb collection.

Antigen: PDVDLGDISGINAS, a 14-residue peptide of the SARS-CoV-2 spike HR2 region.

Each scFv is VH, a 15-residue (Gly4Ser)3 linker, VL, as in the parent Ab-14, and differs from it in the CDRs of the heavy chain only.
VH: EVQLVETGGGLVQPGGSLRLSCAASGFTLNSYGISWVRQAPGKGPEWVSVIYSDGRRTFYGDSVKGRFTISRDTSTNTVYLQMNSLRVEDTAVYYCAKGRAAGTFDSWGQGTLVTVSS
VL: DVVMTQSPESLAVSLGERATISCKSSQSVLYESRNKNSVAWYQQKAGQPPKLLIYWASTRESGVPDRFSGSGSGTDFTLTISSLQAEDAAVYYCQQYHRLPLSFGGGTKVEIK

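The variants were designed computationally from a first round of random CDR variants and then made and measured. Several design methods are mixed in this list. The scFvs were displayed on barcoded MATa yeast, the peptide on MATalpha yeast. Pairs that bind mate more often; barcode pairs of the diploids are counted by sequencing. Read counts were normalised to the haploid input and turned into Kd by a linear fit to BCL2-family pairs of known affinity, for each replicate. The assay was run in six technical replicates.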

Each variant is given by its three heavy chain CDRs, as the data file delimits them; those of the parent are GFTLNSYGIS, VIYSDGRRTFYGDSVK, GRAAGTFDS.
Variants here have at most six changes.
Values are apparent Kd, the geometric mean of the replicates that gave a signal; lower means stronger binding.
"nd" means that the variant was in the library but no mating with the target was seen in any replicate; the authors take this as a sign of poor binding, and no number exists.
The authors' rule: three or more of the six replicates give a measured affinity, fewer mean a poor binder.

With GFSLNEYGIS, VIYSDGRRTFYGDSVK, GEAAGTFDS the result was 2.0 nM (6 of 6 replicates; controls 1 of 18).
With GATLNSYGIS, VIYSDGRRTFYIDSVK, GTGAGTFDN the result was nd (0 of 6 replicates; controls 0 of 18).
With GFSLKSYGIS, VIYSDGMRTFYGDSFK, GRAAGTFDS the result was 120 nM (5 of 6 replicates; controls 0 of 18).
With GFGLNEYGIS, VIYSDGRRTFYADSVK, GRTAGTFDS the result was 330 pM (6 of 6 replicates; controls 0 of 18).
With GANLNSYGIS, VIYSDGRRTFYGDSVK, GRIADTFDS the result was nd (0 of 6 replicates; controls 0 of 18).
With GFSLNSYGIS, VIYSDGRRTFYGDMVK, GRTAGTFDS the result was 3.6 nM (2 of 6 replicates; controls 0 of 18).
With GFWLNDYGIS, VIYSDGRRTFYGDSVK, GTAAGTFDS the result was 54 nM (5 of 6 replicates; controls 0 of 18).
With GFSLNEYGIS, VIYSDGRRTFYIDSVK, GRAAGTFDK the result was 3.3 nM (6 of 6 replicates; controls 1 of 18).
With GFTINSYGIS, VIYSDGRRTFYGDAVK, GRAAKRFDS the result was 6.3 nM (2 of 6 replicates; controls 0 of 18).
With GFDLNSYGIS, VIYSDGRRTFYADSVK, GRCAGTFDS the result was 14 nM (6 of 6 replicates; controls 1 of 18).
With GFTLNSYGIS, VIYSDGQRTFYSDSVK, GRVAGTFDS the result was 1.2 nM (5 of 6 replicates; controls 0 of 18).
With GFSLNEYGIS, VIYSDGRRTFYGDSVK, GRAAVTFDG the result was nd (0 of 6 replicates; controls 0 of 18).
With GFSLNSYGIS, VIYSDGRRTFYDDSVK, GWVAGTFDS the result was nd (0 of 6 replicates; controls 0 of 18).
With GFSLNSYGIS, VIYSDGRRTFYADNVK, GRTAGTFDS the result was 5.9 nM (6 of 6 replicates; controls 0 of 18).
With GFSLNDYGIS, VIYSDGRRTFYSDSVK, GEAAGTFDS the result was 11 nM (6 of 6 replicates; controls 1 of 18).
With GFTLNEYGIS, VIYSDGRRTAYGDSVK, SRAAVTFDQ the result was nd (0 of 6 replicates; controls 0 of 18).
With GFTLNEYGIS, VIYSDGRRTFYHDSVK, GRAAGTFDS the result was 1.5 nM (6 of 6 replicates; controls 1 of 18).
With GFDLNSYGIS, VIYSDGRRTFYGDSVK, GRMAGSFDS the result was nd (0 of 6 replicates; controls 0 of 18).
With GFSLNSYGIS, VIYSDGRRTFYQDSVK, GKTAGTFDS the result was 1.8 nM (6 of 6 replicates; controls 0 of 18).
With GFSLESYGIS, VIYSDGRRTFYGDSVK, GQAAGTFDS the result was 4.4 nM (6 of 6 replicates; controls 0 of 18).
With GFHLNSYGIS, VIYSDGRRTFYIDSVK, GRQAGTFDS the result was nd (0 of 6 replicates; controls 0 of 18).
With GFTLNEYGIS, VIYSDGRRTMYGDSVK, GRHAGTFDS the result was 21 nM (6 of 6 replicates; controls 0 of 18).
With GFTLNSYGIS, VIYSDGLRTFYGDSVK, GRAAGTFEV the result was nd (0 of 6 replicates; controls 0 of 18).
With GFTLNEYGIS, VIYSDGRRTMYDDSVK, GRAAGTFDS the result was 3.0 nM (6 of 6 replicates; controls 1 of 18).
With GFTLHSYGIS, VIYSDGRRTFYDDSVK, GKLAGTFDS the result was 330 nM (1 of 6 replicates; controls 0 of 18).
With GFTLNSYGIS, VIYSDGRRTFYSDSVK, GREAGTFSS the result was 2.1 nM (6 of 6 replicates; controls 0 of 18).
With GFSLNTYGIS, VIYSDGRRTFYGDSVK, GRNAGTFDS the result was 1.3 nM (6 of 6 replicates; controls 0 of 18).
With GFTRESYGRS, VIYSDGRRTFYGDSVK, GRAALTLDS the result was nd (0 of 6 replicates; controls 0 of 18).
With GFHLNSYGIS, VIYSDGKRRFYGDSVK, GRLAGTFDS the result was 110 nM (2 of 6 replicates; controls 0 of 18).
With GFSLNSYGIS, VIYSDGRRTFYQDSVK, GEAAGTFDK the result was 2.6 nM (6 of 6 replicates; controls 0 of 18).
With GFELNSYGIS, VIYSDGRRTFYADSVK, GSTAGTFDS the result was 1.1 nM (6 of 6 replicates; controls 0 of 18).
With GFTLNSDGIS, VIYVDGRRTFYGDSVK, GIAAGTNKS the result was nd (0 of 6 replicates; controls 0 of 18).
With GFTLEKYGIS, VIYSDGRRTFYGDSVK, GRAAGTFMS the result was 6.9 nM (6 of 6 replicates; controls 1 of 18).
With GFTLNEYGIS, VIYSDGRRTFYKDSVK, GREAGTFDS the result was 610 pM (6 of 6 replicates; controls 1 of 18).

The opening 5 entries, copied out:

GFSLNEYGIS, VIYSDGRRTFYGDSVK, GEAAGTFDS: 2.0 nM (6 of 6 replicates; controls 1 of 18).
GATLNSYGIS, VIYSDGRRTFYIDSVK, GTGAGTFDN: nd (0 of 6 replicates; controls 0 of 18).
GFSLKSYGIS, VIYSDGMRTFYGDSFK, GRAAGTFDS: 120 nM (5 of 6 replicates; controls 0 of 18).
GFGLNEYGIS, VIYSDGRRTFYADSVK, GRTAGTFDS: 330 pM (6 of 6 replicates; controls 0 of 18).
GANLNSYGIS, VIYSDGRRTFYGDSVK, GRIADTFDS: nd (0 of 6 replicates; controls 0 of 18).

The range of this assay differs from that of the first round, and the authors advise against merging the two.
Three control strains display no target. For all heavy chain designs, 1% of the pairings with them gave a signal, with a median of 120 nM and one signal in twenty below 7.0 nM, so weak values seen in few replicates may be background. For each scFv, signals with the empty controls are counted beside the result.
The parent sequence was in this pool as ten entries: three were never detected, three once, and four in most replicates, with averages from 2.2 nM to 240 nM.